Patent publication US4543254A, “Antiphlogistic/antipyretic/analgesic agents containing theobromine or theophylline derivatives as active ingredient” (Eisai Co., Ltd., priority 1982, dated 1985)

Experiment: in vivo
Conditions: po, p.o., read-out: Safety margin (LD50/ED50)
Procedure: Ten mice were used for each dose and morality was determined for 3 days after administration of each test compound of the invention. In the case of the rats, 5 rats were used for each dose and morality was determined 7 days after administrations.

Cn1cnc2c1c(=O)n(CCCN1CCN(c3ccc(Cl)c(Cl)c3)CC1)c(=O)n2C [Compound A', 1-(3-(4-(3,4-dichlorophenyl)piperazinyl-(1))-n-propyl)theobromine]
selectivity ratio (mouse, mice): > 100
selectivity ratio (rat, rats): ≥ 50

Read-outs that look alike come from different tables or passages of the source.
